Assay results as given in ChEMBL document CHEMBL1124044, “4-N-hydroxy-L-2,4-diaminobutyric acid. A strong inhibitor of glutamine synthetase” (J Med Chem, 1988).

How the values were obtained:
[1] = tested on: Glutamine synthetase (Glycine max); conditions: at 0.1 mM
[2] = tested on: Glutamine synthetase (Ovis aries); conditions: at 0.1 mM
[3] = tested on: Glutamine synthetase (Glycine max); conditions: at 0.2 mM
[4] = tested on: Glutamine synthetase (Ovis aries); conditions: at 0.2 mM
[5] = tested on: Glutamine synthetase (Ovis aries); conditions: at 0.5 mM
[6] = tested on: Glutamine synthetase (Glycine max); conditions: at 0.5 mM

Structure (SMILES): NC(CCNO)C(=O)O (stereo unspecified)
- inhibition [1]: 47%
- inhibition [2]: 80%
- inhibition [3]: 64%
- inhibition [4]: 92%
- inhibition [5]: 100%
- inhibition [6]: 84%
